{"source": "ChEMBL document CHEMBL1221220", "about": "“Transport and signaling via the amino acid binding site of the yeast Gap1 amino acid transceptor” (Nat Chem Biol, 2009);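 further: amino acid uptake through Gap1 in nitrogen-starved wild-type yeast cells, measured after 60 s and expressed relative to L-citrulline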", "molecular_target": "T1, General amino-acid permease GAP1 (Saccharomyces cerevisiae) (UniProt P19145)", "T1 sequence (whole entry)": "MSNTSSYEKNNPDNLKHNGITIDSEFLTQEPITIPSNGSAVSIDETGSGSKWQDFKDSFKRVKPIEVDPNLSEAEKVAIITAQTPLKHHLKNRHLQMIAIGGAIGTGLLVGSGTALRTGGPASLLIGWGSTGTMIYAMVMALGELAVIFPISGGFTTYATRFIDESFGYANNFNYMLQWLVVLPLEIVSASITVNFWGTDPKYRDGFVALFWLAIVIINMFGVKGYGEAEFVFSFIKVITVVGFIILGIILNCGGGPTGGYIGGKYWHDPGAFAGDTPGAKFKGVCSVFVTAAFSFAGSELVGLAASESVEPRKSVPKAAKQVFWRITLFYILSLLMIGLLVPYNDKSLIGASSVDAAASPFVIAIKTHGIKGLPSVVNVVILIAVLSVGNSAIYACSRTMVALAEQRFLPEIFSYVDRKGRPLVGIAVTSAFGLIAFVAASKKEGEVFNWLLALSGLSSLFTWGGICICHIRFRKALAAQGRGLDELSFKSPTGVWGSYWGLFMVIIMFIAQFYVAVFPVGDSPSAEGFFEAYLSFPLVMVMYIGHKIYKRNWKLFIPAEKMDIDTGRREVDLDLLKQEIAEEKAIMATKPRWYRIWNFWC", "details": "sigma1278b, at 5 mM", "data": [{"compound": "NCCCC[C@H](NC(=O)[C@H](CCCCN)NC(=O)[C@@H](N)CCCCN)C(=O)O", "values": [{"measurement": "inhibition", "value": "< 15", "unit": "%"}]}]}
